# Experimental data: patent US20220251105A1, “METHODS OF TREATING A MK2-MEDIATED DISORDER” (Celgene CAR LLC, priority 2019, published 2022)
# Amino acid sequences for entries named in this document (tags omitted). Residues count along the entry.
# UniProt Q80ZF4, 1-386: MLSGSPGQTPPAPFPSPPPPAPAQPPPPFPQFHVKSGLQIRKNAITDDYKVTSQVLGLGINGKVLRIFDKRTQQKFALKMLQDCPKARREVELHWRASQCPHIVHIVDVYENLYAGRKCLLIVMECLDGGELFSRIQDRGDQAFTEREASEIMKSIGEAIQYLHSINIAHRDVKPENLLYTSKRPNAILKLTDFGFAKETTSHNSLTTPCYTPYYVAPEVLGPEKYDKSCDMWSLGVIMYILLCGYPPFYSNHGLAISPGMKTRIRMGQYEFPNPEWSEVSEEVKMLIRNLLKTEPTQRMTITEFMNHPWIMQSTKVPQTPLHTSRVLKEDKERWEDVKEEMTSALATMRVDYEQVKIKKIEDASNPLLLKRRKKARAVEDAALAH
# UniProt P49137, whole entry: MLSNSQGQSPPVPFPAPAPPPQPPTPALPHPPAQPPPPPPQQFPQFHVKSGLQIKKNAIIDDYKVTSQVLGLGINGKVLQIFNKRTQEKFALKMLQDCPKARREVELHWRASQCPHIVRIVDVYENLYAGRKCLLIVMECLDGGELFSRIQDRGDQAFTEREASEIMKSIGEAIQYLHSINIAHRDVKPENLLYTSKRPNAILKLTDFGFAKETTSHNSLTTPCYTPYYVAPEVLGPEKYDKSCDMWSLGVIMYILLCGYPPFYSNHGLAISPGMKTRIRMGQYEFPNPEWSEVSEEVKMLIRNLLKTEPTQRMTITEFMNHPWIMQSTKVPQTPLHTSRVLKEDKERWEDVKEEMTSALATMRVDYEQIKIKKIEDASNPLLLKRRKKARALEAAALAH
# UniProt P49138, whole entry: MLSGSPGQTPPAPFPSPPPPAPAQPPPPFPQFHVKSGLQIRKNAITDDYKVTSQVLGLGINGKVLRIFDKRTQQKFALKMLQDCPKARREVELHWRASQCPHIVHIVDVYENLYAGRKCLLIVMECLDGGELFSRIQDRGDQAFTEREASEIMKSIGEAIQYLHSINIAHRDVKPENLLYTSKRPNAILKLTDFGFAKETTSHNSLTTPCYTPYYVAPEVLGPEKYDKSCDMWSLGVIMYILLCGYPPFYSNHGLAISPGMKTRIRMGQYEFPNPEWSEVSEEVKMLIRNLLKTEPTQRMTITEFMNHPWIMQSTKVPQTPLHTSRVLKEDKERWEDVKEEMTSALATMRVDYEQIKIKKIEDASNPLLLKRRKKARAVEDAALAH
# Columns and labels:
# MK2 [1] = target: T1, MK2 (Rattus norvegicus, UniProt Q80ZF4); conditions: HLA-B27Tg model of AS in rats
# MK2 [2] = target: T2, MK2 (Homo sapiens, UniProt P49137)
# MK2 [3] = target: T2, MK2; conditions: target peptide 133[…]149 (Cys140); 10-fold molar excess, 1 hour, room temperature
# MK2 [4] = target: T1, MK2; assay: in vivo
# MK2 [5] = target: MK2 (Mus musculus, UniProt P49138); conditions: 3 mg/kg
# MK2 [6] = target: T2, MK2; remark: listed apart in the source
# [7] = read-out: Mean PBMC Occupancy (%)
# [8] = read-out: Mean Spleen Occupancy (%)
# [9] = CAIA, 24 hours following the last dose
compound,measurement,setting,value
CCOCc1cnc(Cl)nc1Oc1ccc2c(ccc3sc4c(c32)NC[C@@H](C)NC4=O)n1 [Compound 1],TE associated with a greater decrease in paw swelling than etanercept and tofacitinib,MK2 [1],approximately 70%
same,target engagement (TE),"MK2 [2]; Part 1, single oral doses 10 mg to 400 mg, by 4 hours",dose dependent increase in TE
same,target engagement (TE),"MK2 [2]; Part 2, daily dosing 10 mg to 150 mg",dose-dependent increases in TE following doses between 10 mg and 120 mg and plateauing at the 120 mg and 150 mg dose levels
same,Observed Mass of Modified Peptide,MK2 [3],2388.43 Da
same,receptor occupancy at 20 mg/kg,MK2 [4]; [7],53%
same,receptor occupancy at 100 mg/kg,MK2 [4]; [7],72 ± 3.7%
same,receptor occupancy at 20 mg/kg,MK2 [4]; [8],23%
same,receptor occupancy at 100 mg/kg,MK2 [4]; [8],30 ± 5.6%
same,"% MK2 Occupied, PBMC",MK2 [5]; [9],PBMC: 51 ± 16^c %
same,"% MK2 Occupied, Spleen",MK2 [5]; [9],Spleen: 28 ± 16^c %
same,"% MK2 Occupied, PBMC","MK2 [5]; imiquimod model, 8 hours following the last dose",PBMC: 38 ± 3^d %
same,"% MK2 Occupied, PBMC","MK2 [5]; mannan PsA model, 8 hours following the last dose",PBMC: 47 ± 12^d %
same,predicted median TE,MK2 [6]; 60 mg dose,approximately 67%
same,predicted median TE,MK2 [6]; 150 mg dose,~79%

# Where two headings read alike, the source gives them in different places. Marks after values point to notes of the source that are not given here.
